# Binding of CDR-mutated scFvs to a peptide of the spike HR2 region

The target is the same throughout: PDVDLGDISGINAS, from the HR2 region of SARS-CoV-2 spike.

The variants keep the heavy chain, the linker and the frameworks of Ab-14 (scFv order VH, a 15-residue (Gly4Ser)3 linker, VL).
VH: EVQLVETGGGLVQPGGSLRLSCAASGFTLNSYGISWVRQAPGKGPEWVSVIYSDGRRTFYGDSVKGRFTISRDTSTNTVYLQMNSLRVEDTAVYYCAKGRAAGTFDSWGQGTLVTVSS
VL: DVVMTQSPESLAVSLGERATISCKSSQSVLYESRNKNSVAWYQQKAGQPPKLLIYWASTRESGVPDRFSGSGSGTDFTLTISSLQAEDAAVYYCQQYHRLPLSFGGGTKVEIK

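The starting antibody came from a phage panning campaign against this peptide. In library AAYL50, one, two or three CDR residues were substituted; doubles and triples were drawn at random. The assay is AlphaSeq: two haploid yeast populations carry antibody and antigen on their surface. Pairs that bind mate more often; barcode pairs of the diploids are counted by sequencing. Read counts were normalised to the haploid input and turned into Kd by a linear fit to BCL2-family pairs of known affinity, for each replicate. The assay was run in three technical replicates.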

Positions count from residue 1 of the parent VL; K36C puts C in place of K.
Every variant below is changed at A40 of the VL (sequential numbering).
The Kd shown is the geometric mean over detected replicates; a lower Kd is a better binder.
A pair that was not seen in any replicate is written "nd"; this usually means weak binding, but a binder can also be missed.
In this assay the parent's reference entry averaged 4.4 nM; its copy inside this library read 48 nM.
Nonspecific signal, from three strains lacking the peptide, appeared in 18% of pairings of library AAYL50, centred on 15 µM (5% of these signals below 970 nM); values are not corrected for it.

For K36C/A40G, the assay gave nd (0 of 3 replicates).
For E32K/A40S/T59M, the assay gave 15 µM (1 of 3 replicates).
For A40P/W56S/L100M, the assay gave 6.0 µM (1 of 3 replicates).
For S28T/R34E/A40L, the assay gave nd (0 of 3 replicates).
For E32R/A40K/Q96C, the assay gave 13 µM (2 of 3 replicates).
For N37G/A40N/Q95G, the assay gave nd (0 of 3 replicates).
For S33E/A40M/L102R, the assay gave nd (0 of 3 replicates).
For E32R/A40S/Q95S, the assay gave 24 µM (2 of 3 replicates).
For Q27Y/A40S/Y97D, the assay gave 24 µM (1 of 3 replicates).
For K36Y/N37Q/A40W, the assay gave nd (0 of 3 replicates).
For S28R/V29E/A40V, the assay gave nd (0 of 3 replicates).
For S28H/S33K/A40C, the assay gave 97 µM (3 of 3 replicates).
For V29H/A40L/R60V, the assay gave nd (0 of 3 replicates).
For S26G/A40S/S103I, the assay gave 21 µM (3 of 3 replicates).
For K24Q/N37M/A40M, the assay gave nd (0 of 3 replicates).
For S25E/A40V, the assay gave nd (0 of 3 replicates).
For A40Q/A57H/S58L, the assay gave 2.1 µM (2 of 3 replicates).
For K24C/S26I/A40K, the assay gave 23 nM (3 of 3 replicates).
For L30T/A40H/P101S, the assay gave 43 µM (2 of 3 replicates).
For S28L/K36F/A40S, the assay gave nd (0 of 3 replicates).
For A40L/R99N, the assay gave nd (0 of 3 replicates).
For K24S/S28V/A40V, the assay gave 1.3 µM (1 of 3 replicates).
For L30F/A40S/S103P, the assay gave 22 µM (2 of 3 replicates).
For Y31N/A40N/T59E, the assay gave 47 µM (3 of 3 replicates).
For S26M/A40M/Q95E, the assay gave 79 µM (1 of 3 replicates).
For N35S/A40H/S58N, the assay gave 10 µM (1 of 3 replicates).
For A40Y/Q96K/L100H, the assay gave 17 µM (1 of 3 replicates).
For V39G/A40M/A57Y, the assay gave 55 µM (2 of 3 replicates).
For S38N/A40W/S58C, the assay gave nd (0 of 3 replicates).
For A40W/Q96V/L102R, the assay gave nd (0 of 3 replicates).
For V29F/A40R, the assay gave nd (0 of 3 replicates).
For N37S/A40G/H98N, the assay gave 85 µM (2 of 3 replicates).
For R34I/A40S/Q96W, the assay gave 90 µM (1 of 3 replicates).
For S25G/A40P/S103V, the assay gave nd (0 of 3 replicates).
For E32N/A40E/H98I, the assay gave 71 µM (3 of 3 replicates).
For A40T/T59C/Q95F, the assay gave nd (0 of 3 replicates).
For S25T/S26I/A40L, the assay gave nd (0 of 3 replicates).
For K24R/A40Q/A57I, the assay gave 2.4 µM (1 of 3 replicates).
For A40C/Q95L, the assay gave 4.4 µM (3 of 3 replicates).
For R34L/N37W/A40I, the assay gave 1.0 µM (1 of 3 replicates).
For K24D/A40K/W56N, the assay gave nd (0 of 3 replicates).
For E32W/A40Q/L102T, the assay gave 5.7 µM (1 of 3 replicates).
For N37H/A40Q/A57F, the assay gave nd (0 of 3 replicates).
For Q27K/A40W/S58F, the assay gave 440 µM (2 of 3 replicates).
For S26A/Y31G/A40G, the assay gave nd (0 of 3 replicates).
For A40L/L100I, the assay gave nd (0 of 3 replicates).
For A40N/A57Q/Y97W, the assay gave nd (0 of 3 replicates).

Excerpt, the first 8 entries:

For K36C/A40G, the assay gave nd (0 of 3 replicates).
For E32K/A40S/T59M, the assay gave 15 µM (1 of 3 replicates).
For A40P/W56S/L100M, the assay gave 6.0 µM (1 of 3 replicates).
For S28T/R34E/A40L, the assay gave nd (0 of 3 replicates).
For E32R/A40K/Q96C, the assay gave 13 µM (2 of 3 replicates).
For N37G/A40N/Q95G, the assay gave nd (0 of 3 replicates).
For S33E/A40M/L102R, the assay gave nd (0 of 3 replicates).
For E32R/A40S/Q95S, the assay gave 24 µM (2 of 3 replicates).

Source: Engelhart et al. 2022 (doi:10.1038/s41597-022-01779-4), MIT Lincoln Laboratory and A-Alpha Bio; data file from the FLAb repository.